Laboratory results from PubChem BioAssay (EPA / NIEHS).
The entries are a selection whose mix differs from that of the whole data set. The source made the active and inactive calls. How the source made its calls: active means hit-call score of the fitted dose curve at least 0.9, where 1 is the maximum; inactive means score below 0.9.

Experiment: CCTE_Harrill_HTTr_Viability_MCF7: CCTE's 6-hour Cell Viability Assessment for the High-Throughput Transcriptomics (HTTr) Platform, in MCF-7 cells cultured in DMEM + 10% fetal bovine serum, Harrill Lab (AID 2284010)
Description: This is a cell-based assay that evaluates cell viability using high content imaging to evaluate membrane integrity using propidium iodide dye exclusion in a 384 well format.One of seven assay components measured from the CCTE_Harrill_HTTr_Viability assay. This was part of a full screening experiment. This is a cell-based assay that evaluates cell viability in MCF-7 cells cultured in DMEM + 10% fetal bovine serum. High content imaging is used to evaluate membrane integrity using propidium iodide dye exclusion. Measurements are taken at 6 hours after chemical dosing in 384-well format.The assay component endpoint CCTE_Harrill_HTTr_Viability_MCF7 was analyzed with bidirectional fitting relation to DMSO as the negative control and baseline of activity. Using a type of viability reporter, gain-of-signal activity can be used to evaluate membrane integrity using propidium iodide dye exclusion to understand changes in cytotoxicity. To generalize the intended target to other relatable targets, this assay endpoint is annotated to cell cycle, where the subfamily is cytotoxicity.
Chemicals were tested in MCF7 cells in an eight point dilution series with a six hour exposure duration.

Structure (SMILES)	outcome
Cc1c([N+](=O)[O-])cccc1[N+](=O)[O-]	inactive
Cc1ccc([N+](=O)[O-])cc1[N+](=O)[O-]	inactive
CC(C)OP(C)(=O)OC(C)C	inactive
[NH4+].[O-][Cl+3]([O-])([O-])[O-]	inactive
Cc1cccc([N+](=O)[O-])c1[N+](=O)[O-]	inactive
O=[N+]([O-])OCC(CO[N+](=O)[O-])(CO[N+](=O)[O-])CO[N+](=O)[O-]	inactive
O=[N+]([O-])[O-].[NH4+]	inactive
Cc1ccc([N+](=O)[O-])c([N+](=O)[O-])c1	inactive
COP(C)(=O)OC	inactive
C/C1=C2N=C(/C=C3N=C(/C(C)=C4\[N-][C@@](C)([C@@H]5N=C1[C@](C)(CCC(=O)NC[C@@H](C)OP(=O)([O-])O[C@H]1[C@@H](O)[C@@H](n6cnc7cc(C)c(C)cc76)O[C@@H]1CO)[C@H]5CC(N)=O)[C@@](C)(CC(N)=O)[C@@H]4CCC(N)=O)[C@@](C)(CC(N)=O)[C@@H]\3CCC(N)=O)C(C)(C)[C@@H]/2CCC(N)=O.[C-]#N.[Co+3]	inactive
N#CBr	inactive
O=[N+]([O-])c1cccc([N+](=O)[O-])c1	inactive
